For this experiment, the target named is Delta-aminolevulinic acid dehydratase (Escherichia coli (strain K12), UniProt P0ACB2). Kind of experiment: PBGS Assay. Particulars: pH 8.1. An excerpt: The PBGS assay is a colorimetric assay based on the reaction between PBG and 4-dimethylaminobenzaldehyde (Ehrlich's reagent).

Amino acid sequences for entries named in this document (tags omitted). Residues count along the entry.
UniProt P0ACB2, 2-324 limits assumed: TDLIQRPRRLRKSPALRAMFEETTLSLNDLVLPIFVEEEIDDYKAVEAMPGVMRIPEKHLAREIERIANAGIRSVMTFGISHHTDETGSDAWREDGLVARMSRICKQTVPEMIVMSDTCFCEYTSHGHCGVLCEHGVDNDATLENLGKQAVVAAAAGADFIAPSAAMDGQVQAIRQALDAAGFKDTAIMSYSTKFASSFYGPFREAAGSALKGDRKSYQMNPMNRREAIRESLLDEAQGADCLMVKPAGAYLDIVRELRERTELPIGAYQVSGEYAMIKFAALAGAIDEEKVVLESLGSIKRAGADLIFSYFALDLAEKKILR

For orientation: Ki means the dissociation constant of the complex between target and ligand, obtained from inhibition or displacement. Low values mean a stronger hold on the target, high ones a looser hold on the target. `O=C(CC[N+](=O)[O-])CNC(=O)CC[N+](=O)[O-]` yielded a Ki of 30 µM.

Values taken from BindingDB's records for 11828463 (University of NeuchÂTel, 2001).
